Legend:
CETP [1] = target: T1, CETP (Homo sapiens, UniProt P11597); experiment: CETP activity in vitro ([3H]CE transfer from HDL to LDL); format: biochemical; parameters: made in house; host or cells: CHO cells (serum-free conditioned medium); details: CETP activity assay in vitro; read-out: CEPT Activity Assay IC50
T1 sequence (P11597 18-493): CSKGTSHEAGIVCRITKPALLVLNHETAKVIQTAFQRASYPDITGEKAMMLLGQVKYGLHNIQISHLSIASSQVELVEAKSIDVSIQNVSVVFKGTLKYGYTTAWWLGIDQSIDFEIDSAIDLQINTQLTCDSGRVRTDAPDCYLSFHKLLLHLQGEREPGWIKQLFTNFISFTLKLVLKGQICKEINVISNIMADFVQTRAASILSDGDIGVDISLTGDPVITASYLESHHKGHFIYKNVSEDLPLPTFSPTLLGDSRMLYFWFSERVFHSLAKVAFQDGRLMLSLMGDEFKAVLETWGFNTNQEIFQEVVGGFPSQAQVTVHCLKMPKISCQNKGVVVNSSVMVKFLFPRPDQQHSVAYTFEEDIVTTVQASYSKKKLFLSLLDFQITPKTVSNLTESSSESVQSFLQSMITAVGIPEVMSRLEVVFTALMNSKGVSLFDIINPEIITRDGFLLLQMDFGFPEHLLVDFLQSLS
Experimental: The ability of compounds to inhibit CETP were assessed using an in vitro assay that measured the rate of transfer of radiolabled cholesteryl ester ([3H]CE) from HDL donor particles to LDL acceptor particles. Details of the assay are provided by Glenn et al. (“Quantification of Cholesteryl Ester Transfer Protein (CETP): A) CETP Activity and B) Immunochemical Assay of CETP Protein,” Meth. Enzymol., Glenn and Melton (Meth. Enzymol., 263, 339-351 (1996)). CETP was obtained from the serum-free conditioned medium of CHO cells transfected with a cDNA for CETP (Wang, S, et al. J. Biol Chem. 267, 17487-17490 1992). To measure CETP activity, [^3H]CE-labeled HDL, LDL, CETP and assay buffer (50 mM tris(hydroxymethyl)aminomethane, pH 7.4; 150 mM sodium chloride; 2 mM ethylenediamine-tetraacetic acid; 1% bovine serum albumin) were incubated in a volume of 200μ, for 2 hours at 37° C. in 96 well plates. LDL was differentially precipitated by the addition of 50 μl of 1% (w/v) dextran sulfate/0.5 M magnesium chloride, mixed by vortex, and incubated at room temperature for 10 minutes. The solution (200 μl) was transferred to a filter plate (Millipore). After filtration, the radioactivity present in the precipitated LDL was measured by liquid scintillation counting. […] The rate of [^3H]CE transfer using this assay was linear with respect to time and CETP concentration, up to 25-30% of [^3HCE transferred. […]

CETP [2] = target: T1, CETP; experiment: Whole serum CETP activity assay (tritiated cholesteryl ester); format: biochemical; parameters: Blood was obtained from healthy volunteers recruited from the personnel of Monsanto Company; from tissue; host or cells: pooled human EDTA plasma or serum from healthy volunteers
Experimental: Whole Serum CETP Activity Assay (Tritiated Colesterol Eter)
Blood was obtained from healthy volunteers recruited from the personnel of Monsanto Company, Saint Louis, Mo. Blood was either collected in tubes containing EDTA (EDTA plasma pool) or without (spun to form the serum pool). The EDTA human plasma pool or human serum pool, previously stored at −20° C., was thawed at room temperature, and centrifuged for 5 minutes to remove any particulate matter. Tritiated HDL, radiolabeled in the cholesteryl ester moiety ([^13H]CE-HDL) as described by Morton and Zilversmit (J. Biol. Chem., 256, 11992-95 (1981)), was added to the plasma or serum to a final concentration of (25 μg/ml cholesterol). […] Radioactivity was measured on a microplate scintillation counter (TopCount, Packard, Meriden, Conn.). […] The maximum percent transfer (in the control wells) was determined using the following equation: [formula] The percent of control transfer determined in the wells containing inhibitor compounds was determined as follows: [formula] IC50 values were then calculated from plots of % control versus concentration of inhibitor compound. Examples of IC50 values determined by this method are specified in Table 10 CETP Activity In Vitro

- IC50 (CETP [1]): 0.15 µM
- IC50 (CETP [2]): 6.9 µM
SMILES: OC(CN(Cc1cccc(OC(F)(F)C(F)F)c1)c1cccc(Oc2ccccc2)c1)C(F)(F)F (centres unmarked) [Inhibitor 1-1N]
